Test results as given in paper PMC8802549 (The Journal of Immunology Author Choice, 2022).

Chains of the proteins cited; added tags and fusions are not shown.
UniProt P01888, whole entry, looked up: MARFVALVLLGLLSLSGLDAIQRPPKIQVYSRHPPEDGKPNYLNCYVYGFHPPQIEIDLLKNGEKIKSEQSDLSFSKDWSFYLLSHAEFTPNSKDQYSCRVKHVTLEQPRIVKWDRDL

Key:
[1] = molecular target: BoLA-1*023:01 MHC class I molecule with bovine β2-microglobulin (bovine) (UniProt P01888); test: ELISA
[2] = molecular target: BoLA-1*023:01 MHC class I molecule with bovine β2-microglobulin (bovine) (UniProt P01888); test: ELISA; remark: listed apart in the source

Substance: Tp9_(67–75) Muguga epitope peptide
- Kd [1]: 37.1 nM
- Kd [2]: 22.4 nM

Like-named read-outs stand apart in the source and are kept apart here.
